Test results taken from patent publication US20240225983A1, “COMPOSITIONS AND METHODS FOR PREVENTING OR REDUCING AUTOXIDATION OF FRAGRANCE AND FOOD OILS” (Firmenich SA, priority 2021, published 2024).

Experiment: Solubility / appearance in undiluted fragrance oil
Type: physicochemical
Conditions: 180 μL (2% v/v) in 9 mL model fragrance oil, vortexed ~1 min
Experimental: Treatment of Undiluted Fragrance Oil: In 15 ml vials, to separate aliquots of the mixed model fragrance oil (9 mL each aliquot) was added 180 μL (2% v/v) of each SOP, and the samples were vigorously vortexed for ˜1 min, to obtain a homogenous, clear solution (the AKG-NMDEA was an exception in that it was hazy). The resulted samples were then allowed to stand on the laboratory benchtop under ambient light and temperature. POV measurements were taken as a function of time after the addition; the headspace within the vial was refreshed with the ambient atmosphere with each opening of the vial.

In the case of `CN(CCO)CCO.CN(CCO)CCO.O=C(O)CCC(=O)C(=O)O` [AKG-NMDEA, AKG di[N-methyldiethanolammonium] salt], the “appearance of solution in undiluted fragrance oil” value is reported as “hazy”.
